## Properties, as collected for the OPERA models

Values as listed in the OPERA 2.9 repository of K. Mansouri.

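OPERA's authors assembled the values from existing databases and did not measure them anew. The files give a single number for a compound and property, which may rest on several reports. Method, purity and exact conditions of the single measurements are not given. A value may pool stereoisomers or salt forms, and the file does not say which form was measured. Unmarked limits or estimates from the upstream databases cannot be ruled out.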

Melting points are in °C. The boiling point refers to atmospheric pressure (760 mmHg), by the definition of the set. The octanol-water partition coefficient is given as log10; larger values mean a more lipophilic compound. Solubility in water is on a log10 molar scale (set defined at 25 °C). Vapor pressure is log10 of mmHg; the set covers 15 to 30 °C, mostly 20 to 25 °C. fu is the fraction unbound in human plasma, from 0 to 1. Clint is human hepatic intrinsic clearance in µL/min per million cells; 0 means that no clearance was seen.

CCCCC(CC)COCC1CO1 (stereo not drawn) [2-Ethylhexyl glycidyl ether] is reported with log Kow 3.83 and log VP -0.663 (log10 mmHg). C=CC(C)=CCC=C(C)C [beta-Ocimene] is reported with log Kow 5.4 and log S -4.83 (log10 mol/L) and log VP 0.219 (log10 mmHg). The entry for CC(=O)OCC(CCn1cnc2c(Cl)nc(N)nc21)COC(C)=O lists melting point 135 °C and log Kow 0.92 and log S -2.938 (log10 mol/L). Listed for CN1C(=O)c2ccccc2C1=O [N-Methylphthalimide]: log S -2.584 (log10 mol/L) and log VP -3.415 (log10 mmHg). C/C=C/C(=O)OC(CC)C(C)C (stereo partly drawn) [2-Butenoic acid, 1-ethyl-2-methylpropyl ester, (2E)-] has bp 197 °C and log Kow 3.75 and log S -3.174 (log10 mol/L) and log VP -0.096 (log10 mmHg). CC(C)CCCC(C)CC=O (stereo not drawn) [3,7-Dimethyloctanal] is reported with log S -3.806 (log10 mol/L) and log VP -0.879 (log10 mmHg). The entry for C#CC(C)(O)CCCC(C)CCCC(C)C (stereo not drawn) [3,7,11-Trimethyldodec-1-yn-3-ol] lists log Kow 5.6 and log S -5.112 (log10 mol/L). Cc1c(C#N)sc(N)c1C#N [5-Amino-3-methyl-2,4-thiophenedicarbonitrile] has melting point 225.1 °C and log Kow 1.84 and log S -3.175 (log10 mol/L) and log VP -7.846 (log10 mmHg).

For CCCCC(CC)COC(=O)CCS (stereo not drawn) [Propanoic acid, 3-mercapto-, 2-ethylhexyl ester] the data give log Kow 4.9 and log S -3.583 (log10 mol/L) and log VP -1.17 (log10 mmHg). The entry for CC1C(C)(C)C2=C(C3OCOCC3CC2)C1(C)C (stereo not drawn) lists log Kow 4.29 and log S -4.275 (log10 mol/L) and log VP -2.569 (log10 mmHg). Listed for O=C1c2ccccc2-c2ccc3c4c(ccc1c24)-c1c(Br)ccc(Br)c1C3=O [C.I. Vat Orange 23]: log Kow 1.9 and log S -5.275 (log10 mol/L). The entry for O=C(OCCCc1ccccc1)c1ccccc1 [3-phenylpropyl benzoate] lists log Kow 4.4 and log S -4.801 (log10 mol/L) and log VP -3.894 (log10 mmHg). CC1(C)S[C@@H]2[C@H](NC(=O)[C@H](C(=O)O)c3ccsc3)C(=O)N2[C@H]1C(=O)O [Ticarcillin] is reported with log S -3.73 (log10 mol/L) and plasma fu 0.5183. For Cc1nccn1C [1H-Imidazole, 1,2-dimethyl-] the data give log Kow 0.11 and log VP -0.687 (log10 mmHg). CCCCCCCCCCCCCCCCCCCCCCOC(=O)CCCCCCCCC(=O)OCCCCCCCCCCCCCCCCCCCCCC [Didocosyl sebacate] has log S -6.406 (log10 mol/L) and log VP -5.011 (log10 mmHg). For c1ccc2sc(SSc3nc4ccccc4s3)nc2c1 [2,2'-Dithiobisbenzothiazole] the data give log Kow 4.5 and log VP -9.349 (log10 mmHg).

C=C(C)C(=O)Oc1ccc(C(=O)c2ccccc2)cc1 [4-Benzoylphenyl methacrylate] is reported with melting point 70 °C and log Kow 3.6 and log S -4.823 (log10 mol/L). The entry for CCOC(=O)c1nn(-c2ccc(OC)cc2)c2c1CCN(c1ccc([N+](=O)[O-])cc1)C2=O lists melting point 190.8 °C and log Kow 3.59 and log S -6.619 (log10 mol/L) and log VP -9.71 (log10 mmHg). Listed for CC1CCCCCCCCCCCCC(=O)C1 (stereo not drawn) [3-Methylcyclopentadecan-1-one]: log Kow 6.06 and log S -5.744 (log10 mol/L) and log VP -3.628 (log10 mmHg). For O=S(=O)([O-])c1cccc(/N=N/c2ccc(/N=N/c3ccc(N(CCO)CCO)cc3)c3ccccc23)c1.[Na+] the data give log Kow 0.1 and log S -3.97 (log10 mol/L). For CCCCCCCCCCCC(=O)NCCCC[C@H](N)C(=O)O [L-Lysine, N6-(1-oxododecyl)-] the data give log Kow 1.9 and log S -6.245 (log10 mol/L). O=C1Oc2cc3c(cc2=C1c1ccccc1)OC(=O)C=3c1ccc(OCC2CCCO2)cc1 (stereo not drawn) is reported with log S -6.343 (log10 mol/L) and log VP -5.438 (log10 mmHg). Listed for Oc1cc(F)c(F)c(F)c1 [3,4,5-Trifluorophenol]: log Kow 1.85 and log VP 0.058 (log10 mmHg). Listed for O=C=NC[C@H]1CC[C@H](CN=C=O)CC1: melting point 0.745 °C and bp 255 °C.

The entry for COc1ccccc1NC(=O)c1cc2ccccc2cc1O [3-Hydroxy-2-naphthoic o-anisidide] lists log Kow 2.9 and log S -5.145 (log10 mol/L). For CC1C(C)(C)C2=C(C(=O)CCC2)C1(C)C (stereo not drawn) [Cashmeran] the data give melting point 33 °C and log Kow 4.2 and log S -3.444 (log10 mol/L) and log VP -1.667 (log10 mmHg). For CCCC1CCC(C2CCC(c3ccc(C)cc3)CC2)CC1.CCCC1CCC(C2CCC(c3ccc(C)cc3)CC2)CC1 (stereo not drawn) the data give log S -7.104 (log10 mol/L) and log VP -5.3 (log10 mmHg). For O=S(=O)(CCO)CCO [2,2'-Sulfonyl bisethanol] the data give log Kow -2.06 and log VP -5.233 (log10 mmHg). CCCCC(CC)CNS(=O)(=O)c1ccc(N=Nc2c(C)c(C#N)c(=O)n(CCCC)c2O)cc1 (stereo not drawn) has melting point 131 °C and log S -8.797 (log10 mol/L). COc1ccccc1C(=O)NS(=O)(=O)c1ccc(C(=O)Cl)cc1.COc1ccccc1C(=O)NS(=O)(=O)c1ccc(C(=O)Cl)cc1 [4-((2-Methoxybenzoyl)sulfamoyl)benzoyl chloride] has melting point 148 °C and log VP -9.546 (log10 mmHg). Listed for CC(=O)Oc1ccccc1C(=O)O [Aspirin]: bp 140 °C and plasma fu 0.4297 and Clint 8.57 µL/min/10^6 cells. CC(C)(O)c1ccccc1CC[C@H](O)c1cccc(C=Cc2ccc3ccc(Cl)cc3n2)c1 has melting point 122.3 °C and log Kow 4.9 and log S -6.619 (log10 mol/L) and log VP -9.98 (log10 mmHg).